Measured affinities in a library of Ab-95 light chain variants

Data: MIT Lincoln Laboratory AlphaSeq set, Engelhart et al. 2022, doi:10.1038/s41597-022-01779-4, as distributed in FLAb.

Binding partner: SARS-CoV-2 spike HR2 peptide, sequence PDVDLGDISGINAS.

Ab-95 is the parent antibody, in scFv form: VH, then three GGGGS repeats, then VL. The heavy chain is unchanged in all variants.
VH: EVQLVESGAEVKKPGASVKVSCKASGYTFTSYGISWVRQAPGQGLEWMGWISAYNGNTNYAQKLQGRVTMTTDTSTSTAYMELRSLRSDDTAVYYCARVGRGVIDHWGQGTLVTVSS
VL: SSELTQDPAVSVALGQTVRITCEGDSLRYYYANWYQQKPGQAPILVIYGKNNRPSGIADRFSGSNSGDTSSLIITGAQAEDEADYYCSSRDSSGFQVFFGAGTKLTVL

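In library AAYL52, one, two or three CDR residues were substituted; doubles and triples were drawn at random. The scFvs were displayed on barcoded MATa yeast, the peptide on MATalpha yeast. The frequency of each diploid, read from paired DNA barcodes, reflects how well the two displayed proteins bind. Read counts were normalised to the haploid input and turned into Kd by a linear fit to BCL2-family pairs of known affinity, for each replicate. Mating was done three times.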

The whole VL of each variant is written out.
Values are apparent Kd, the geometric mean of the replicates that gave a signal; lower means stronger binding.
Where no diploid with the target was found in any replicate, the entry reads "nd": below detection, most likely a poor binder, though not proof of it.
The list is sorted by this average, lowest first, undetected variants last.

VL,apparent Kd,replicates with signal
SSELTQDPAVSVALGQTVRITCEGDSLRYYDANWYQQKPGQAPILVIYGKHARPSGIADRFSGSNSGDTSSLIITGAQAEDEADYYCSSRDSSGFQVFFGAGTKLTVL,16 nM,3/3
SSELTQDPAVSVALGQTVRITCEGDSLRGYYANWYQQKPGQAPILVIYGKNNRPTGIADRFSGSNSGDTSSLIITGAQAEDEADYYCSSRDSSGWQVFFGAGTKLTVL,45 nM,3/3
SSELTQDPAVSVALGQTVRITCEGDSLRYYKANWYQQKPGQAPILVIYGKNNRPSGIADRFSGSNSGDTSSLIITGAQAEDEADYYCSSRDSSFFQFFFGAGTKLTVL,390 nM,3/3
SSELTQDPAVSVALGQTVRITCEGDSLRYYYANWYQQKPGQAPILVIYGKNNRPMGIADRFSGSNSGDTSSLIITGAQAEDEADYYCSSRDSSGLQLFFGAGTKLTVL,420 nM,3/3
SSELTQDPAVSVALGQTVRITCEGDSLQYYTANWYQQKPGQAPILVIYGKNNRPSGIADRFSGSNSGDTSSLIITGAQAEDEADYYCSSRDFSGFQVFFGAGTKLTVL,450 nM,2/3
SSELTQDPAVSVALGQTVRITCEGDSLPYYYANWYQQKPGQAPILVIYGKNNRRSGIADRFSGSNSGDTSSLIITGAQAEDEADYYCSSRDSSGFQIFFGAGTKLTVL,1.0 µM,3/3
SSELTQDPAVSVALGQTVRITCEGYSLRYYYANWYQQKPGQAPILVIYGKNNRPSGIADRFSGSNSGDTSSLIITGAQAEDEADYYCSSPDSSGFQVFFGAGTKLTVL,1.3 µM,3/3
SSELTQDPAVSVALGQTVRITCEGRSLRYYYANWYQQKPGQAPILVIYGKHNRPSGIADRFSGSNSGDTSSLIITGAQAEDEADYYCSSRDSLGFQVFFGAGTKLTVL,1.5 µM,3/3
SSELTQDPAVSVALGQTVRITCDGDSLRYYYANWYQQKPGQAPILVIYGKNNRPSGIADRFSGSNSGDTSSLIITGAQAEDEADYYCSMRNSSGFQVFFGAGTKLTVL,2.1 µM,3/3
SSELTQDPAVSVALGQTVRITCEGDSQRYYRANWYQQKPGQAPILVIYGKNARPSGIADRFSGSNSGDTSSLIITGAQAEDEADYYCSSRDSSGFQVFFGAGTKLTVL,2.5 µM,3/3
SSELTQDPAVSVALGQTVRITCEGDSLRYYYADWYQQKPGQAPILVIYGKNNRPSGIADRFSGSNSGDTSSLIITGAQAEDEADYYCSLRDSSQFQVFFGAGTKLTVL,4.9 µM,2/3
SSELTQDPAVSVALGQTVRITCEGDSLRYYYANWYQQKPGQAPILVIYGKNYRPSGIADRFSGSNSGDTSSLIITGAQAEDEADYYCSSRDQSGKQVFFGAGTKLTVL,5.7 µM,3/3
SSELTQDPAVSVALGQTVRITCEGDSLRYYYAWWYQQKPGQAPILVIYGKNNLPSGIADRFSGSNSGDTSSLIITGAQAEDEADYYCSSRDSSGQQVFFGAGTKLTVL,6.4 µM,2/3
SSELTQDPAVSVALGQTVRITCETDSLRYYYANWYQQKPGQAPILVIYFKNNRPSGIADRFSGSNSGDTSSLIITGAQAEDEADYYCSSRWSSGFQVFFGAGTKLTVL,69 µM,3/3
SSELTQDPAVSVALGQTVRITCEGDSLRYYNMNWYQQKPGQAPILVIYGKNNWPSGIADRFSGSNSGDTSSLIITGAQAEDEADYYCSSRDSSGFQVFFGAGTKLTVL,120 µM,1/3
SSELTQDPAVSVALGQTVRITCPGDTLRYYYANWYQQKPGQAPILVIYSKNNRPSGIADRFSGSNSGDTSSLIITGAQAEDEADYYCSSRDSSGFQVFFGAGTKLTVL,nd,0/3
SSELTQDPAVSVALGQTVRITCEGDSPRYYYANWYQQKPGQAPILVIYMKNNRPSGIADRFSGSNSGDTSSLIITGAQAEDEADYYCSSRDSSGFQIFFGAGTKLTVL,nd,0/3

A selection of 2 entries from above:

VL,apparent Kd,replicates with signal
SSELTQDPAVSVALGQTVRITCEGDSLRYYYAWWYQQKPGQAPILVIYGKNNLPSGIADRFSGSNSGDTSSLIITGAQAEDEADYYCSSRDSSGQQVFFGAGTKLTVL,6.4 µM,2/3
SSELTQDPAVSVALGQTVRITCEGDSLRYYKANWYQQKPGQAPILVIYGKNNRPSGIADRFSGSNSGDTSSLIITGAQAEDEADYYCSSRDSSFFQFFFGAGTKLTVL,390 nM,3/3

For reference, the parent read 200 nM as the reference entry and 180 nM as a member of this library.
Empty control strains, which show no peptide, gave a signal in 28% of pairings with library AAYL52; the median was 8.2 µM and 95% of these signals were weaker than 800 nM. No background was subtracted.